Assays:
serum 5-HT = assay: Part 2 MAD biomarker: serum 5-HT change from Day 1; type: in vivo, human; settings: 400 mg fed and all KAR5585 doses pooled
Text: (§1) Biomarkers were to be evaluated in Part 2 by measuring concentrations of serotonin (5-hydroxytryptamine [5-HT]) in serum and 5-hydroxyindoleacetic acid (5-HIAA) in plasma and urine. As well, the relationship of biomarkers to PK parameters was to be evaluated.
(§2) The biomarker analysis was to be based on the Biomarker Population (all subjects with evaluable biomarker measurements at baseline [Day 1 predose] and at least one after dosing [Day 7 or Day 14]).
(§3) Biomarker data were to be collected only in Part 2. The following biomarkers were to be analyzed: • Serum 5-HT • Plasma 5-HIAA • Urine 5-HIAA/24 hours (as measured, adjusted, estimated, and per gram creatinine)
(§4) Linear regression was to be performed using biomarker changes, absolute and relative (%), from Day 1, at predose on Day 7 or Day 14 versus AUC0-24, Cmax, and Cmin in corresponding study days. […]
(§5) The biomarker portion of the study was conducted in Part 2 MAD using the Biomarker Population. The biomarkers evaluated were serum 5-HT and plasma 5-HIAA, as well as urine 5-HIAA/24 hours (as measured, adjusted, estimated, and per gram creatinine). Urinary 5-HIAA was determined by a validated (21 C.F.R. 58, GLP-compliant) method using liquid chromatographic separation and tandem mass spectrometry detection. […]
(§6) Biomarker data were analyzed for each KAR5585 dose separately, for all KAR5585 doses pooled, and for all placebo subjects pooled. […]

urine 5-HIAA/24 hours = assay: Part 2 MAD biomarker: urine 5-HIAA/24 hours change from Day 1; type: in vivo, human; settings: all dose groups; exception: relative change on Day 14, 100 mg fasting
Text: as §1, §2, §3, §4, §5, §6

[1] = Part 1 SAD urine pharmacokinetics (urinary excretion, renal clearance)
[2] = Part 1 SAD plasma pharmacokinetics of KAR5585 and KAR5417 after a single oral dose of KAR5585 (fasting; fed food effect)
[3] = Part 2 MAD plasma pharmacokinetics, BID oral KAR5585 for 14 days; settings: 400 mg/dose BID Fed, Cohort 4, Day 7 PM

## CCOC(=O)[C@@H]1CC2(CCN(c3cc(O[C@H](c4ccc(Cl)cc4-c4ccccc4)C(F)(F)F)nc(N)n3)CC2)CN1 [KAR5585, (S)-ethyl 8-(2-amino-6-((R)-1-(5-chloro-[1,1′-biphenyl]-2-yl)-2,2,2-trifluoroethoxy)pyrimidin-4-yl)-2,8-diazaspiro[4.5]decane-3-carboxylate]
Serum 5-HT
  mean difference of absolute and relative changes from Day 1 to Day 14 in serum 5-HT compared to placebo: statistically significant in favor of KAR5585
Urine 5-HIAA/24 hours
  differences of absolute and relative changes from Day 1 in measured urine 5-HIAA versus placebo: statistically significant in favor of KAR5585 in all dose groups except one
[1]; KAR5585 100 mg single oral dose
  Plasma AUC0-96 Mean: 49.7 ng·h/mL
[1]; KAR5585 200 mg single oral dose
  Plasma AUC0-96 Mean: 100 ng·h/mL
[1]; KAR5585 400 mg single oral dose, fasted
  Plasma AUC0-96 Mean: 303 ng·h/mL
[1]; KAR5585 400 mg single oral dose, fed
  Plasma AUC0-96 Mean: 917 ng·h/mL
[1]; KAR5585 700 mg single oral dose
  Plasma AUC0-96 Mean: 436 ng·h/mL
[1]; KAR5585 1200 mg single oral dose
  Plasma AUC0-96 Mean: 463 ng·h/mL
[1]; KAR5585 2000 mg single oral dose
  Plasma AUC0-96 Mean: 779 ng·h/mL
[2]; 400 mg KAR5585 single dose
  exposure (AUC0-tau and AUC0-inf) under fed relative to fasting conditions: 3.1-4.8 fold
  increase in Cmax, fed relative to fasting: 3.2 fold
  peak exposure (Cmax) higher under fed relative to fasting conditions: approximately 3.9 fold
  peak mean concentrations higher under fed relative to fasting conditions: approximately 320%
[2]; Cohort 3B (Fed) versus Cohort 3A (Fasting), 400 mg KAR5585
  Cmax Geometric LS Mean Ratio: 3.92
[2]; KAR5585 400 mg single oral dose, fed, Cohort 3B
  AUC0-12 Geo. Mean: 756 ng·h/mL
[3]
  AUC0-24 (Geo. Mean): 870 ng·h/mL
